Sequences of proteins named here, by UniProt entry; tags and fusion partners are left off. Residues count along the entry.
UniProt P05067, 672-711: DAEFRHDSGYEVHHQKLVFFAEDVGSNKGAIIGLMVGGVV

According to patent US20030130484A1, “Inhibitors and disassemblers of fibrillogenesis” (priority 2001, published 2003):

Target: Aβ40 (Homo sapiens, UniProt P05067)
Assay: Inhibition of Aβ40 fibrillogenesis, thioflavin T fluorescence assay
Type: biochemical

CC(=O)N[C@@H](CCCCN)C(=O)N(C)[C@@H](CC(C)C)C(=O)N[C@H](C(=O)N(C)[C@@H](Cc1ccccc1)C(=O)N[C@@H](Cc1ccccc1)C(N)=O)C(C)C [Aβ16-20m, Ac—NH—K(me-L)V(me-F)F—CONH2]
Inhibition ICmax: 100 | Inhibition of Fibrilogenesis ICmax: 100%
